# Antibody variant affinities, Ab-95 light chain, assay 2

Target: peptide PDVDLGDISGINAS, taken from heptad repeat 2 (HR2) of SARS-CoV-2 spike.

Parent scFv Ab-95: VH joined to VL by three GGGGS repeats. Changes lie in the light chain CDRs alone.
VH: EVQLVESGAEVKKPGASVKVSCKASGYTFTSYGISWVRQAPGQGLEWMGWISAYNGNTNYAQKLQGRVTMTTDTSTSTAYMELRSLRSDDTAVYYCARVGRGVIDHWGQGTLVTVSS
VL: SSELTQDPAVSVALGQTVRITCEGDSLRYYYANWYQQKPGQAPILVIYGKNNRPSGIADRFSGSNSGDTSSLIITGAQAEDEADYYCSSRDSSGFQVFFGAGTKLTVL

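Phage display of a naive human antibody library on the peptide gave the parent. The library (AAYL52) carries one to three amino acid substitutions per variant, with no insertions or deletions. The scFvs were displayed on barcoded MATa yeast, the peptide on MATalpha yeast. Mating (16 h, 30 °C) was followed by selection of diploids and sequencing of their barcodes. Each replicate has its own calibration line, from reference interactions of the BCL2 family. Each pool was mated in three replicate cultures.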

Positions count from residue 1 of the parent VL; G24N puts N in place of G. Scale: log10 of Kd in nM, estimated from mating counts; low values are strong binders. A mean of the replicates is given; it leaves out those without a signal. "nd" marks a missing value. The strain was present, yet no cells mated with the target were sequenced in any replicate, which points to weak or no binding. Three control strains display no target. For library AAYL52, 28% of the pairings with them gave a signal, with a median of 3.91 and one signal in twenty below 2.90, so weak values seen in few replicates may be background.

With G24N/L27I/F98T the result was 3.74 (2 of 3 replicates).
With A32W/G49S/R53L the result was 4.47 (2 of 3 replicates).
With A32Y/N51R the result was 4.02 (1 of 3 replicates).
With G24H/Y30E/V97F the result was 3.11 (3 of 3 replicates).
With R53P/S92R the result was 3.38 (2 of 3 replicates).
With G24K/A32N/V97G the result was nd (0 of 3 replicates).
With K50C/D91E/F98A the result was nd (0 of 3 replicates).
With L27M/N33P/S92K the result was 1.74 (3 of 3 replicates).
With N51Y/G94A/V97S the result was 3.58 (1 of 3 replicates).
With G24Q/D25H/R28E the result was 3.23 (2 of 3 replicates).
With R28P/Y31A/S89P the result was 5.41 (1 of 3 replicates).
With E23M/G49P/P54G the result was 3.97 (3 of 3 replicates).
With E23S/R53H/R90C the result was 3.10 (2 of 3 replicates).
With L27S/Y29K/S92V the result was 3.04 (3 of 3 replicates).
With K50C/S88F the result was 4.34 (3 of 3 replicates).
With R28P/S93W/G94V the result was 2.68 (3 of 3 replicates).
With S26I/D91G the result was 2.42 (3 of 3 replicates).
With K50L/S88Q/F95V the result was 3.32 (2 of 3 replicates).
With Y29R/N52R the result was 3.48 (3 of 3 replicates).
With G24H/N51Q/P54S the result was 4.60 (1 of 3 replicates).
With G24R/Y30T/F95T the result was 2.48 (3 of 3 replicates).
With S26W/Y30Q/S92Q the result was 0.99 (3 of 3 replicates).
With G24Q/R28S the result was 4.13 (2 of 3 replicates).
With Y31H/N33S/P54L the result was 3.12 (3 of 3 replicates).
With G24Y/S92H/F98D the result was nd (0 of 3 replicates).
With G24A/R28F/P54F the result was 4.64 (1 of 3 replicates).
With G49D/S92L/F98D the result was 3.58 (3 of 3 replicates).
With S26I/R90G the result was nd (0 of 3 replicates).
With R28C/Y31F/R90E the result was 4.10 (1 of 3 replicates).
With K50S/N52M/S88H the result was 2.72 (1 of 3 replicates).
With G49R/S88R/F98V the result was 3.60 (1 of 3 replicates).
With R28H/G94Q/Q96N the result was 2.55 (1 of 3 replicates).
With G24R/K50H/V97N the result was 4.29 (1 of 3 replicates).
With N52G/R53H/S93A the result was 2.71 (3 of 3 replicates).
With G49S/S89Q the result was 4.17 (2 of 3 replicates).
With Y29Q/A32F/G49R the result was 3.38 (3 of 3 replicates).
With E23I/S26G/K50Y the result was 4.57 (3 of 3 replicates).
With N33E/G49M/N51S the result was nd (0 of 3 replicates).
With S88K/G94A/V97H the result was 4.97 (2 of 3 replicates).

Extract of 4 entries:

{"changes": "E23M/G49P/P54G", "mean, log10 nM": "3.97", "detected": "3/3"}
{"changes": "S26I/D91G", "mean, log10 nM": "2.42", "detected": "3/3"}
{"changes": "S26I/R90G", "mean, log10 nM": "nd", "detected": "0/3"}
{"changes": "L27S/Y29K/S92V", "mean, log10 nM": "3.04", "detected": "3/3"}

In this assay the parent's reference entry averaged 2.31; its copy inside this library read 2.25.

Reference: Engelhart et al. 2022, doi:10.1038/s41597-022-01779-4. File: FLAb, binding data.